Here are results for four molecules from PubChem BioAssay AID422 (Emory University Molecular Libraries Screening Center, 2006).

Sequences of proteins named here, by UniProt entry; tags and fusion partners are left off.
UniProt P61981, whole entry: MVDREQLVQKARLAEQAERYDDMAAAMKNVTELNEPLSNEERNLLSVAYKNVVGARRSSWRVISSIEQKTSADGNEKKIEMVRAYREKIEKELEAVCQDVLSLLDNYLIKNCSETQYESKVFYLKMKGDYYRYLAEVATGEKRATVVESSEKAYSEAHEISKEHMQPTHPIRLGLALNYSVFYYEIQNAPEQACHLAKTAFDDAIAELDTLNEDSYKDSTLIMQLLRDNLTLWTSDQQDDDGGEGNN

Each structure is given as a SMILES string. The entries are a selection whose mix differs from that of the whole data set. Some of these compounds have results that are not shown, active ones among them. Activity calls are given as the source filed them. No stated cut-off is given here; in the data, active means inhibition above about 30%; inactive means the rest.

This test addresses 14-3-3 protein gamma (Homo sapiens) (UniProt P61981). In words: modulators of 14-3-3 gamma protein binding, primary screen, biochemical, fluorescence polarization (AID 422).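 Further: 0% = protein plus tracer without compound and 100% = blank with tracer alone.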 The note with it: FP, 14-3-3gamma / TMR-pS259-Raf peptide binding; at 40 µM; stronger effect = higher value. A general note: In fluorescence polarisation assays a small probe gives low polarisation when free and higher when bound to something large.
Turning to `CN(C)C1CCCC1OC(=O)C(O)(c1ccccc1)c1ccccc1` (centres undefined), the inhibition is inactive: -1.3%.
The same measure for `CC(CN(C)C(C)(C)C)OC(=O)C(O)(c1ccccc1)c1ccccc1` (centres undefined): inactive: 5.98%; for `CN(C)c1cccc(C(=O)NCC2(N(C)C)CCCCC2)c1`: inactive: 2.03%; for `O=C(OC1CN2CCC1CC2)C(CO)(c1ccccc1)c1ccccc1` (centres undefined): inactive: -9.02%.

The term inhibition denotes the change of the read-out against control, counted positive when it falls.
